The target of this test is aldose reductase (Rattus norvegicus, UniProt P07943). The test can be described thus: Aldose reductase inhibition (optical density at 340 nm, Kinoshita's method). The test is classed as biochemical. The conditions noted are these: read-out: IC50(M) Molar concentration of a compound producing 50% inhibition of aldose reductase; aldose reductase purified from rat lenses; pH 6.2; DL glyceraldehyde, NADPH; tested form: free acid (monoethyl ester).

On to `CCOC(=O)CCCCCCCC(=O)N1C(c2cccc([N+](=O)[O-])c2)SC[C@H]1C(=O)O` (stereo partly shown), for which the IC50 came to 1.1e-08 M.
